From US20230414607A1, “METHODS OF TREATMENT” (BOW RIVER LLC, priority 2017, published 2023)
“And” between values parts separate entries of the source, which are not always exact repeats. Equal entries are not always repeated. Where two headings read alike, the source gives them in different places. Each block holds one compound with its values, some of them ahead of it.

Chains of the proteins cited; added tags and fusions are not shown.
UniProt P08684, whole entry: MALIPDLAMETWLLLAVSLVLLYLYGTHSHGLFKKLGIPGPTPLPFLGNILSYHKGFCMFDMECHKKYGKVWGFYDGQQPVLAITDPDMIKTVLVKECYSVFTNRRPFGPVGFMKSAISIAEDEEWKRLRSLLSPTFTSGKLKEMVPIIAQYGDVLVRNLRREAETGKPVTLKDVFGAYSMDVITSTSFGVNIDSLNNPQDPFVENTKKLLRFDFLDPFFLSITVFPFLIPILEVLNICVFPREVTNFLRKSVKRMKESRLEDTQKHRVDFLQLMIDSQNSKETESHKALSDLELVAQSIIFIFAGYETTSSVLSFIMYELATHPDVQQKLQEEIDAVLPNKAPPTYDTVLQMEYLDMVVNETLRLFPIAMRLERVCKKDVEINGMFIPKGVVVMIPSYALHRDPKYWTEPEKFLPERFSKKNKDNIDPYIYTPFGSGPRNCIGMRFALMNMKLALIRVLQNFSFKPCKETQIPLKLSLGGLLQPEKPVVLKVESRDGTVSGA

Experiments:
CYP3A4 = CYP3A4 (Homo sapiens, UniProt P08684); details: in vivo; cited from earlier work
[1] = Plasma ranolazine pharmacokinetics before, during and after posaconazole in normal-weight and obese subjects; format: in vivo, human
Protocol: Procedures. […] Samples were centrifuged, and the plasma was separated and frozen at −70° C. until the time of assay of plasma ranolazine concentrations. On study day 2, subjects received posaconazole (300 mg delayed-release tablet twice a day), and on the mornings of days 3-15, subjects received posaconazole (300 mg delayed-release tablet daily). Because posaconazole is to be taken with food,^6 subjects were fed a continental breakfast in the clinical research unit after receiving posaconazole and before discharge from the unit. […] Samples were centrifuged, and the plasma was separated and frozen at −70° C. until the time of assay of plasma posaconazole concentrations. […] Plasma samples were extracted by methyl tertiary butyl ether, centrifuged, and the upper layer was transferred to plastic injection vials with MeOH/water (50:50). An aliquot of the sample was then injected onto a high-pressure liquid chromatography with tandem mass spectrometry triple quadrupole mass spectrometer (Sciex API-5500). The analytical column was a Unison CK-218, 3 μm particle size HPLC column (50×2 mm) from Imtakt USA (Portland, OR). […] The m/z transitions monitored were 428.3→279.2 for ranolazine and 431.3→282.2 for the internal standard. […] Pharmacokinetic and Statistical Methods. For each ranolazine trial in each subject, the terminal log-linear phase of the plasma concentration curve was identified visually, and the terminal rate constant (β) was determined by log-linear regression analysis. This was used to calculate the half-life (t1/2). The area under the plasma concentration curve from time 0 until the last nonzero point was determined by the linear trapezoidal method. To this was added the residual area, calculated as the final nonzero concentration divided by β, yielding the total area under the plasma concentration curve extrapolated to infinity (AUC). Also tabulated was the observed maximum plasma concentration (Cmax). Variables were aggregated as arithmetic mean and SD.

CYP3A = assay: Example 3: ranolazine AUC during and after posaconazole (drug-drug interaction); details: normal-weight and obese subjects
[2] = QTcF from 12-lead safety ECG readings; format: in vivo, human; details: mean ± SD
Description: Potential study participants underwent screening and evaluation within 30 days of study initiation. Procedures included medical and psychiatric history, physical examination, electrocardiogram (ECG), hematologic and biochemical screening, and urine testing for drugs of abuse. All study participants were healthy active nonsmoking adults with no history of significant medical or psychiatric disease and taking no prescription medications. Obese subjects were free of metabolic or other complications of obesity. […] Subjects were also administered 12-lead ECGs in triplicate on study days 1 and 15 before and 4 hours after the ranolazine dose as well as before discharge on day 30.
QTcF values were determined electronically from 12-lead ECG readings taken for safety purposes. […] Differences between baseline and study days 1, 15, and 30 were evaluated by Student's t-test for independent groups.

[3] = cited from earlier work
[4] = Day 18/Day 1, normal-weight subjects
[5] = Day 22/Day 1, normal-weight subjects
[6] = Day 25/Day 1, normal-weight subjects
[7] = Day 29/Day 1, normal-weight subjects

Compound: C[C@@H](Oc1cc(-c2cnn(C3CCNCC3)c2)cnc1N)c1c(Cl)ccc(F)c1Cl [crizotinib]
AUC co-administration levels, Percent of baseline (CYP3A4): 157% | Cmax co-administration levels, Percent of baseline (CYP3A4): 133%

Geometric mean ratio (90% CI) of plasma ranolazine AUC0-inf [1, 4]: 2.34 (1.70-3.22) | Geometric mean ratio (90% CI) of plasma ranolazine Cmax [1, 4]: 1.82 (1.38-2.42) | Geometric mean ratio (90% CI) of plasma ranolazine AUC0-inf ([1]; Day 18/Day 1, obese subjects): 2.25 (1.41-3.58) | Geometric mean ratio (90% CI) of plasma ranolazine Cmax ([1]; Day 18/Day 1, obese subjects): 1.97 (1.42-2.80) | Geometric mean ratio (90% CI) of plasma ranolazine AUC0-inf [1, 5]: 1.88 (1.38-2.54) | Geometric mean ratio (90% CI) of plasma ranolazine Cmax [1, 5]: 1.50 (1.13-1.99) | Geometric mean ratio (90% CI) of plasma ranolazine AUC0-inf ([1]; Day 22/Day 1, obese subjects): 1.79 (1.11-2.88) | Geometric mean ratio (90% CI) of plasma ranolazine Cmax ([1]; Day 22/Day 1, obese subjects): 1.90 (1.35-2.54) | Geometric mean ratio (90% CI) of plasma ranolazine AUC0-inf [1, 6]: 1.30 (0.97-1.76) | Geometric mean ratio (90% CI) of plasma ranolazine Cmax [1, 6]: 1.36 (1.00-1.85) | Geometric mean ratio (90% CI) of plasma ranolazine AUC0-inf ([1]; Day 25/Day 1, obese subjects): 1.57 (0.99-2.50) | Geometric mean ratio (90% CI) of plasma ranolazine Cmax ([1]; Day 25/Day 1, obese subjects): 1.72 (1.20-2.47) | Geometric mean ratio (90% CI) of plasma ranolazine AUC0-inf [1, 7]: 1.22 (0.92-1.62) | Geometric mean ratio (90% CI) of plasma ranolazine Cmax [1, 7]: 1.16 (0.89-1.53) | Geometric mean ratio (90% CI) of plasma ranolazine AUC0-inf ([1]; Day 29/Day 1, obese subjects): 1.21 (0.79-1.85) | Geometric mean ratio (90% CI) of plasma ranolazine Cmax ([1]; Day 29/Day 1, obese subjects): 1.30 (0.94-1.82) | time AUC remained significantly elevated above baseline after stopping posaconazole (CYP3A): 7 to 14 days
Compound: COc1ccccc1OCC(O)CN1CCN(CC(=O)Nc2c(C)cccc2C)CC1 (centres unmarked) [ranolazine]
QTcF values relative to baseline ([2]; Day 1, 4 h post-dose of ranolazine 500 mg, normal-weight subjects): 9.85 ± 12 ms | QTcF values relative to baseline ([2]; Day 1, 4 h post-dose of ranolazine 500 mg, obese subjects): 3.83 ± 11 ms | QTcF values relative to baseline ([2]; Day 1, predose, normal-weight subjects): 2.14 ± 10 ms | QTcF values relative to baseline ([2]; Day 1, predose, obese subjects): 7.50 ± 9.2 ms | QTcF values relative to baseline ([2]; Day 15, 4 h post-dose (ranolazine with posaconazole), normal-weight subjects): 4.36 ± 16 ms | QTcF values relative to baseline ([2]; Day 15, 4 h post-dose (ranolazine with posaconazole), obese subjects): -3.33 ± 13 ms | QTcF values relative to baseline ([2]; Day 15, predose (during posaconazole), normal-weight subjects): 6.29 ± 16 ms | QTcF values relative to baseline ([2]; Day 15, predose (during posaconazole), obese subjects): 2.64 ± 11 ms | QTcF values relative to baseline ([2]; Day 30 (before discharge), normal-weight subjects who completed the study): 12.9 ± 16 ms and 12.9 ms | QTcF values relative to baseline ([2]; Day 30 (before discharge), obese subjects who completed the study): 2.6 ± 11 ms and 2.6 ms and 2.58 ± 11 ms

Compound: trastuzumab deruxtecan
Baseline AUC (% CV), AUClast ([3]; 21 day cycle at 0.8 mg/kg): 51.7 (13.1) ug*day/mL | Baseline AUC (% CV), AUClast ([3]; 21 day cycle at 3.2 mg/kg): 325 (142) ug*day/mL | Baseline AUC (% CV), AUClast ([3]; 21 day cycle at 8.0 mg/kg): 914 (235) ug*day/mL
